Measured values taken from patent publication US20260325654A1, “METHODS AND COMPOSITIONS FOR TARGETED PROTEIN DEGRADATION” (Ranok Therapeutics (Hangzhou) Co. Ltd., priority 2023, published 2026).

Protein sequences, listed by entry. Tags and fused reporters are not part of them. Residues count along the entry.
UniProt P01116, 1-188 isoform 2 G12D: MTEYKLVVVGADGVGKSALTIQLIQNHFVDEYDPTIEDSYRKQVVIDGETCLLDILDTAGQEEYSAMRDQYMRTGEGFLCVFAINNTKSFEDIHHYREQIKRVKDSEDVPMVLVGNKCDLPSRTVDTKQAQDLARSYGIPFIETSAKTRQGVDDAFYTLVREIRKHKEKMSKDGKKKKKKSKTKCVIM

Key:
KRAS(G12D)/SOS1 = KRAS(G12D)/SOS1 (Homo sapiens, UniProt P01116, G12D); test: KRAS(G12D)/SOS1 Homogeneous Time-Resolved Fluorescence (HTRF) Assay; conditions: read-out: HTRF of KRAS G12D-SOS1 IC50; absence of GTP, 4° C., 3 hr; tested form: formate
AGS = test: CellTiter-Glo Reagent cancer cell line proliferation assay, AGS; conditions: read-out: AGS proliferation IC50, KRAS(G12D) heterozygous, 24 hr, tested form: formate
A427 = test: CellTiter-Glo Reagent cancer cell line proliferation assay, A427; conditions: read-out: A427 proliferation IC50; A427, KRAS(G12D) heterozygous, 24 hr; tested form: formate
ASPC-1 = test: CellTiter-Glo Reagent cancer cell line proliferation assay, ASPC-1; conditions: read-out: ASPC-1 proliferation IC50; ASPC-1, KRAS(G12D) homozygous, 24 hr; tested form: formate
SW1990 = test: CellTiter-Glo Reagent cancer cell line proliferation assay, SW1990; conditions: read-out: SW1990 proliferation IC50; SW1990, KRAS(G12D) homozygous, 24 hr; tested form: formate

CN1C[C@H](N2CCN(CC3CCN(c4ccc5c(c4)CN(C4CCC(=O)NC4=O)C5=O)CC3)CC2)C[C@@H]1COc1nc(N2CC3CCC(C2)N3)c2cnc(-c3cc(O)cc4ccccc34)c(F)c2n1 (some centres unmarked)
IC50 (KRAS(G12D)/SOS1): < 100 nM
IC50 (AGS): > 1000 nM
IC50 (A427): > 1000 nM
IC50 (ASPC-1): > 1000 nM
IC50 (SW1990): > 1000 nM
